Protein sequences, listed by entry. Tags and fused reporters are not part of them.
UniProt P30518, whole entry: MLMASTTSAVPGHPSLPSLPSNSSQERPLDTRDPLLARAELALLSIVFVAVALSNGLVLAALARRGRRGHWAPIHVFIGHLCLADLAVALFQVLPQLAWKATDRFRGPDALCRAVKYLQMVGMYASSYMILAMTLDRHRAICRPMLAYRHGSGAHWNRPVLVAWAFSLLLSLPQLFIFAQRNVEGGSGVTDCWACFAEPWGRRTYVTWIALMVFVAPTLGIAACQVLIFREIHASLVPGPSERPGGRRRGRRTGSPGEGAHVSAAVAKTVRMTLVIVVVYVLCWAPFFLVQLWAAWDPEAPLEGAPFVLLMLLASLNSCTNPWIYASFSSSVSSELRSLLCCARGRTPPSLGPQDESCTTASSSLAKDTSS

According to ChEMBL document CHEMBL1134932, “Bridged bicyclic vasopressin receptor antagonists with V(2)-selective or dual V(1a)/V(2) activity” (Bioorg Med Chem Lett, 2002):

Molecular target: Vasopressin V2 receptor (Homo sapiens, UniProt P30518)
Assay: Inhibition of [3H]Arg-vasopressin binding to recombinant human vasopressin V2 receptor

IC50: 6 nM
Compound: O=C(Nc1ccc(C(=O)N2CC3C4CCC(CC4)N3Cc3ccccc32)cc1)c1ccccc1-c1ccccc1 (stereo unspecified)
